{
  "sequences": {"note": "Sequences of proteins named here, by UniProt entry; tags and fusion partners are left off.", "UniProt Q15858, whole entry": "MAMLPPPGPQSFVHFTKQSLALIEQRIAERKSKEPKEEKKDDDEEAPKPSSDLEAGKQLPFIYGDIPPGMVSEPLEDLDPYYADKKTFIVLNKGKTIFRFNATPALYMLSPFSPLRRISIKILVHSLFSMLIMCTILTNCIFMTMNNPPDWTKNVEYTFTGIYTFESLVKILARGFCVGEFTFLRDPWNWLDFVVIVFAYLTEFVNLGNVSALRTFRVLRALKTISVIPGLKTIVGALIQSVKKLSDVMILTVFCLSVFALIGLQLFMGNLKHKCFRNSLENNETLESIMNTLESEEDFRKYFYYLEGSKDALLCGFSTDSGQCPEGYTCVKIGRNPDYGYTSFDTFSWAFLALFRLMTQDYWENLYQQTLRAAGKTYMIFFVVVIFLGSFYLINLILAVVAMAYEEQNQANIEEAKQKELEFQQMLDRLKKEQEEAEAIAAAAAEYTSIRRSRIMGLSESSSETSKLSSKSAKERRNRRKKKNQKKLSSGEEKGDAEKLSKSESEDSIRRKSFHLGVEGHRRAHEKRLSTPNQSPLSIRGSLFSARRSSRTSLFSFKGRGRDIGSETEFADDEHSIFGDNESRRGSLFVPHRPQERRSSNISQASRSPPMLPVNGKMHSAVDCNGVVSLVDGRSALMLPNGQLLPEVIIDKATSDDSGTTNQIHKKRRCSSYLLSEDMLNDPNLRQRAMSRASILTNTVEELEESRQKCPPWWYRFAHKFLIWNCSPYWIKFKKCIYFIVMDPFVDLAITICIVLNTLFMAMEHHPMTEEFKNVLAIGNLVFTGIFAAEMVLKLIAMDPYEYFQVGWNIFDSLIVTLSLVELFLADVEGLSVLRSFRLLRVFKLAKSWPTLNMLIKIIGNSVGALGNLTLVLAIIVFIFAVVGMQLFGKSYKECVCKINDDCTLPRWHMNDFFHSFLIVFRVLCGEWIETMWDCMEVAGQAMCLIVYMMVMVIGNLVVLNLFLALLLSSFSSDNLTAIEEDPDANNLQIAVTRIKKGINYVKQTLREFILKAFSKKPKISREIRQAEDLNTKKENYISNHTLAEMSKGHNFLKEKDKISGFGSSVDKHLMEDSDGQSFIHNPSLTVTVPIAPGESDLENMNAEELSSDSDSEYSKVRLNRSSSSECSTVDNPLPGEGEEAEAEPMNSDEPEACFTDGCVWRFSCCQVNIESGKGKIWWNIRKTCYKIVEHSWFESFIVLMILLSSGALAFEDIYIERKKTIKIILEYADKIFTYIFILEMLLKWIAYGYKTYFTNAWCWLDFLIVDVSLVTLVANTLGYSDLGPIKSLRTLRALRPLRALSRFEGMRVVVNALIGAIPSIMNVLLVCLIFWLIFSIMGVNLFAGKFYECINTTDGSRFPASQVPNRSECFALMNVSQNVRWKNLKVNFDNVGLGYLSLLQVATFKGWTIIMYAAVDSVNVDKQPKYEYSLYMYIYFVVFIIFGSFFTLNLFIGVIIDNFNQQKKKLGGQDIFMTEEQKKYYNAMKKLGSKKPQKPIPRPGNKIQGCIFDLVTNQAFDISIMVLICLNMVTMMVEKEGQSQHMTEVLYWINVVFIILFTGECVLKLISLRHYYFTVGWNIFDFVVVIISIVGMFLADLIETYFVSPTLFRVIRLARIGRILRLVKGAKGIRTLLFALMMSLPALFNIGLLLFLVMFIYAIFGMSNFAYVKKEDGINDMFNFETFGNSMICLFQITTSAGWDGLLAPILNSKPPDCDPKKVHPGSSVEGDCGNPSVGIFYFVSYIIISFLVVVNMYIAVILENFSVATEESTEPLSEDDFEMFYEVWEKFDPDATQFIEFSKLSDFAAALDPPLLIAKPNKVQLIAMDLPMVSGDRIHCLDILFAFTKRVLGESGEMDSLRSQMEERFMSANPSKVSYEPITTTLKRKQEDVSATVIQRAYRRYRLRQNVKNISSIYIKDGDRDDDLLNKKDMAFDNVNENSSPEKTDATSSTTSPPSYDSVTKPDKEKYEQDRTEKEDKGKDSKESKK"},
  "source": "patent US20220089663A1",
  "about": "“PROTEINS AND FLUOROPHORE-CONTAINING COMPOUNDS SELECTIVE FOR NaV1.7” (MEMORIAL SLOAN KETTERING CANCER CENTER, priority 2019, published 2022)",
  "key": {"mouse sciatic nerves [1]": {"tested_on": "mouse sciatic nerves", "assay": "fluorescence stereoscope (Lumar) imaging of sciatic nerves", "type": "in vivo", "details": "7 nmol i.v., 30 min post-injection", "experimental": "Fluorescence Stereoscope Imaging. The Hsp1a-FL fluorescence signal in mouse sciatic nerves was also visualized using a fluorescence stereoscope 30 min after intravenous injection of Hsp1a-FL (7 nmol, 68 μM of Hsp1a-FL in 100 μL of PBS) or PBS (n=3/group). Fluorescence images were obtained using mice with exposed but otherwise intact sciatic nerves. Images were also obtained from excised sciatic nerves and muscle. Imaging was performed in bright field and fluorescence mode, with a 500/20 nm laser excitation and 535/30 emission filter and an exposure time of 200-400 ms."}, "mouse sciatic nerves [2]": {"tested_on": "mouse sciatic nerves", "assay": "epifluorescence imaging (IVIS Spectrum) of sciatic nerves and organs 30 min after injection", "type": "in vivo", "experimental": "Animal Model. Female athymic nude mice (4-8 week-old, athymic-Nude (outbred) (Stock #: 088; Envigo, USA) were allowed to acclimatize at the Memorial Sloan Kettering Cancer Center (MSK) vivarium for 1 week with ad libitum food and water prior to the experimental procedure. For imaging experiments, animals were sacrificed 30 min post-tail vein injection of Hs1a-FL, Hs1a/Hs1a-FL, Hsp1a-FL, Hsp1a/Hsp1a-FL, or PBS. All animal experiments were performed in accordance with institutional guidelines and approved by the IACUC of MSK, following NIH guidelines for animal welfare.\nEpifluorescence Imaging. Animals were intravenously injected with Hsp1a-FL (7 nmol, 68 μM of Hsp1a-FL in 100 μL of PBS, n=9), or Hs1a-FL (4 nmol, 45 μM of Hs1a-FL in 100 μL of PBS, n=3). To assess the specificity of the Hsp1a-FL or Hs1a-FL accumulation, animals were injected with a combination of Hsp1a and Hsp1a-FL (Hsp1a-FL, 68 μM, 7 nmol and Hsp1a 204 μM, 21 nmol in 100 μL PBS, n=9), Hs1a and Hs1a-FL (Hs1a-FL, 45 μM, 4 nmol and Hs1a, 120 μM, 12 nmol in 100 μL PBS, n=3) or PBS (n=9). Animals were sacrificed 30 min post-injection and epifluorescence images obtained. Epifluorescence images of the right sciatic nerve (RSN) and the left sciatic nerve (LSN) were obtained in situ. Epifluorescence of the biodistribution of the peptides in excited RSN, LSN, muscle, heart, kidney, liver, and brain were acquired with IVIS Spectrum (PerkinElmer) using a predefined GFP filterset (e.g., excitation=465/30 nm, emission=520-580 nm) based on the particular fluorophore employed in the compounds. Autofluorescence was removed through spectral unmixing. Semiquantitative analysis of the Hsp1a-FL or Hs1a-FL signal was conducted by measuring the average radiant efficiency (in units of unit [p/s/cm^2/sr]/[μW/cm^2]) in regions of interest (ROIs) that were placed on all resected organs under white light guidance."}, "hNav1.7": {"biological_target": "hNav1.7 (Homo sapiens, UniProt Q15858)", "assay": "automated whole-cell patch clamp (QPatch 16X), HEK293-hNav1.7", "type": "cell-based", "set-up": "host or cells: HEK293", "details": "HEK293 cells stably expressing human channel; read-out: IC50 Nav1.7"}},
  "data": [
    {"compound": "CC[C@H](C)[C@H](NC(=O)[C@H](CCCCN)NC(=O)[C@@H]1CSSC[C@@H]2NC(=O)[C@@H]3CCCN3C(=O)[C@H](CCCNC(=N)N)NC(=O)[C@H](CCC(=O)O)NC(=O)[C@H](CO)NC(=O)[C@H](CC(=O)O)NC(=O)[C@@H]3CSSC[C@H](NC(=O)[C@H](C(C)C)NC(=O)[C@H](CC(C)C)NC(=O)CNC(=O)[C@H](CCC(=O)O)NC(=O)[C@H](CSSC[C@H](NC(=O)[C@@H](N)Cc4ccc(O)cc4)C(=O)N[C@@H](CCC(N)=O)C(=O)N[C@@H](CCCCNC(=O)CCC4=[N+]5C(=Cc6c(C)cc(C)n6[B-]5(F)F)C=C4)C(=O)N[C@@H](Cc4ccccc4)C(=O)N[C@@H](CC(C)C)C(=O)N[C@@H](Cc4c[nH]c5ccccc45)C(=O)N[C@@H]([C@@H](C)O)C(=O)N3)NC2=O)C(=O)N[C@@H](CCCNC(=N)N)C(=O)N[C@@H](CC(C)C)C(=O)N[C@@H](Cc2c[nH]c3ccccc23)C(=O)N1)C(=O)N[C@@H](CC(N)=O)C(N)=O", "note": "[Hsp1a-FL]", "values": [
      {"measurement": "fluorescence intensity of sciatic nerves", "setting": "mouse sciatic nerves [1]", "value": "(2.6±1.7)×10^4"},
      {"measurement": "mean radiant efficiency, sciatic nerves ex vivo", "setting": "mouse sciatic nerves [2]; 7 nmol i.v. alone, 30 min post-injection", "value": "(26±0.13)×10^7 [p/s/cm^2/sr]/[μW/cm^2]"},
      {"measurement": "fluorescent signal in other organs, including muscle and liver, versus PBS", "setting": "mouse sciatic nerves [2]; 7 nmol i.v., 30 min", "value": "No significant fluorescent signal"},
      {"measurement": "radiant efficiency for the kidneys, with injection", "setting": "mouse sciatic nerves [2]; 7 nmol i.v., 30 min", "value": "0.1±0.01×10^7 [p/s/cm^2/sr]/[μW/cm^2]"},
      {"measurement": "biodistribution in various tissues", "setting": "mouse sciatic nerves [2]; 30 minutes after systemic injection", "value": "limited to the peripheral nervous system"},
      {"measurement": "reduction in radiant efficiency by unmodified peptide", "setting": "mouse sciatic nerves [2]; sciatic nerves ex vivo", "value": 200, "unit": "fold"},
      {"measurement": "IC50", "setting": "hNav1.7", "value": 62, "unit": "nM"}
    ]}
  ]
}
